The values that follow come from article PMC7042484 (Redox Biology, 2020).

In general, IC50 refers to the point on the concentration scale where inhibition reaches its midpoint. Read a low IC50 as greater potency.

The assay deals with T1, human NOX4 (Homo sapiens, UniProt Q9NPH5).
T1 sequence (Q9NPH5 1-578): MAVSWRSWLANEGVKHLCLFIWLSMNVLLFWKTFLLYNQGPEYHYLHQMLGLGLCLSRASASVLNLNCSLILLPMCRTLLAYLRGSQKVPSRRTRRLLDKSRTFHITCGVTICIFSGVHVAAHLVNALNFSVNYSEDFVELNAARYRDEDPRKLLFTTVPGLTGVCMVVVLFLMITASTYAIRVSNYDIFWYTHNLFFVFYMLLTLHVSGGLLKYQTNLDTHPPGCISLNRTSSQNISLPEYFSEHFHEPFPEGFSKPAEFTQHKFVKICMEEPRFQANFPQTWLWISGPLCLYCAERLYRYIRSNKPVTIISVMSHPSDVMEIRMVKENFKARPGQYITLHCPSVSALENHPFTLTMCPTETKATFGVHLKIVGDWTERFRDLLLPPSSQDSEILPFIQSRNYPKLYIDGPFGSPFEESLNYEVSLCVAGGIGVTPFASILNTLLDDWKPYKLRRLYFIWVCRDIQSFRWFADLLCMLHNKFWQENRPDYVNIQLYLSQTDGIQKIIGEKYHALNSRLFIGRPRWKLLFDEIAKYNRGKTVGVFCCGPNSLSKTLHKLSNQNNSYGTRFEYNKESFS
T1 sequence (P13498 2-195 partner limits assumed): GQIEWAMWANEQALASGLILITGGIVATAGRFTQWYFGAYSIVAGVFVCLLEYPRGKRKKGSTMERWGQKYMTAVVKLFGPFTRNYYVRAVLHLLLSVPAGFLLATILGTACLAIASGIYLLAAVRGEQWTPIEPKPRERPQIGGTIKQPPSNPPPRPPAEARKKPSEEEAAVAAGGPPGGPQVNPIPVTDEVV
The assay can be described thus: Amplex red/peroxidase assay on NOX4 membranes. Format: biochemical.

With `c1ccc2c(c1)[I+]c1ccccc1-2` [DPI, Diphenylene iodonium], the IC50 was 2260 ± 1180 nM.
